From ChEMBL document CHEMBL5584236, “Development of novel bisphenol derivatives with a membrane-targeting mechanism as potent gram-positive antibacterial agents” (Eur J Med Chem, 2024) come the findings set out here.

What all share (format): functional
What all share (conditions): time 22-24 hrs

One assay deals with Escherichia coli. As to the kind of experiment: Antibacterial activity against Escherichia coli ATCC25922 assessed as reduction in microbial growth incubated for 22 to 24 hrs by CLSI based broth microdilution method. (In broth dilution the organism is exposed to a series of concentrations in liquid medium.)
For assay [1], the system named is Staphylococcus aureus. As to the kind of experiment: Antibacterial activity against methicillin-resistant Staphylococcus aureus N315 assessed as reduction in microbial growth incubated for 22 to 24 hrs by CLSI based broth microdilution method.
Assay [2] concerns Staphylococcus aureus. As to the kind of experiment: Antibacterial activity against methicillin-resistant Staphylococcus aureus NCTC10442 assessed as reduction in microbial growth incubated for 22 to 24 hrs by CLSI based broth microdilution method.
In assay [3] the test system is Staphylococcus aureus. As to the kind of experiment: Antibacterial activity against Staphylococcus aureus ATCC29213 assessed as reduction in microbial growth incubated for 22 to 24 hrs by CLSI based broth microdilution method.

As usually defined, the MIC is the smallest concentration in the dilution series that meets the test's criterion for growth inhibition.

For `CC[C@H](C)[C@H](NC(=O)CN)C(=O)NCC(=O)N[C@@H](C)C(=O)N[C@H](C(=O)N[C@@H](CC(C)C)C(=O)N[C@@H](CCCCN)C(=O)N[C@H](C(=O)N[C@@H](CC(C)C)C(=O)N[C@H](C(=O)N[C@H](C(=O)NCC(=O)N[C@@H](CC(C)C)C(=O)N1CCC[C@H]1C(=O)N[C@@H](C)C(=O)N[C@@H](CC(C)C)C(=O)N[C@H](C(=O)N[C@@H](CO)C(=O)N[C@@H](Cc1c[nH]c2ccccc12)C(=O)N[C@H](C(=O)N[C@@H](CCCCN)C(=O)N[C@@H](CCCNC(=N)N)C(=O)N[C@@H](CCCCN)C(=O)N[C@@H](CCCNC(=N)N)C(=O)N[C@@H](CCC(N)=O)C(=O)N[C@@H](CCC(N)=O)C(N)=O)[C@@H](C)CC)[C@@H](C)CC)[C@@H](C)O)[C@@H](C)O)C(C)C)C(C)C` [MELITTIN], the MIC in the assay on Escherichia coli is 3.12 mg/L; in the assay on Staphylococcus aureus [1], 3.12 mg/L; in the assay with Staphylococcus aureus [2], 1.56 mg/L; in the assay with Staphylococcus aureus [3] it was 3.12 mg/L.
